Values of other authors, collected in article PMC4508061, “Selectivity Profiling and Biological Activity of Novel β-Carbolines as Potent and Selective DYRK1 Kinase Inhibitors” (PLoS ONE, 2015).

By UniProt entry, the sequences of proteins in these tests, tags left out. Where a name states a change or a piece, a line headed by the entry shows the natural chain unless it says otherwise.
UniProt P49760, whole entry: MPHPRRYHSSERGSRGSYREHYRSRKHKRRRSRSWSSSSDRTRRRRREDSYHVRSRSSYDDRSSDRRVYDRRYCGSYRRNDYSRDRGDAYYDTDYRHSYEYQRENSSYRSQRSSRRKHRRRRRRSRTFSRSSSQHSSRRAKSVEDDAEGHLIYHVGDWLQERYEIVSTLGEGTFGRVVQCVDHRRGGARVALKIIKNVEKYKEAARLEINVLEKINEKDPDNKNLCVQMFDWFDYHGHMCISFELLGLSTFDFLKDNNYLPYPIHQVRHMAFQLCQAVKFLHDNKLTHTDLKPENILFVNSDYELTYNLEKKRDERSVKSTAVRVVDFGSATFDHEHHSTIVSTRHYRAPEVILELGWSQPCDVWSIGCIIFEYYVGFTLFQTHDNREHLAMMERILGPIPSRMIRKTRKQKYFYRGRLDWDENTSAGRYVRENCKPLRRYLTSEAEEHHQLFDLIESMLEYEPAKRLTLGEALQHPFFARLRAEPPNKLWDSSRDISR
UniProt P49761: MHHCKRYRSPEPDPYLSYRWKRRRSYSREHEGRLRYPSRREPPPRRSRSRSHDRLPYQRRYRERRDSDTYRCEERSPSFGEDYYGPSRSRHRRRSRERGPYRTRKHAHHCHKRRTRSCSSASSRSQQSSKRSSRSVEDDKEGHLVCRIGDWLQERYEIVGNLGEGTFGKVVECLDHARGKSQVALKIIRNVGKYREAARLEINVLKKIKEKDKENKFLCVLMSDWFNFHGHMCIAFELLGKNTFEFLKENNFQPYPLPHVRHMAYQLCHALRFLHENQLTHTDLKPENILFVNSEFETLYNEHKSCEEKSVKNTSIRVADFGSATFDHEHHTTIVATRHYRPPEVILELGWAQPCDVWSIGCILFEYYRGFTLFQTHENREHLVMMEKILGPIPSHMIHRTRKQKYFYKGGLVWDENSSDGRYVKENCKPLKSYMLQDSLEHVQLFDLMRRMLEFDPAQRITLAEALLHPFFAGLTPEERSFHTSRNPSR
UniProt Q9Y463, whole entry: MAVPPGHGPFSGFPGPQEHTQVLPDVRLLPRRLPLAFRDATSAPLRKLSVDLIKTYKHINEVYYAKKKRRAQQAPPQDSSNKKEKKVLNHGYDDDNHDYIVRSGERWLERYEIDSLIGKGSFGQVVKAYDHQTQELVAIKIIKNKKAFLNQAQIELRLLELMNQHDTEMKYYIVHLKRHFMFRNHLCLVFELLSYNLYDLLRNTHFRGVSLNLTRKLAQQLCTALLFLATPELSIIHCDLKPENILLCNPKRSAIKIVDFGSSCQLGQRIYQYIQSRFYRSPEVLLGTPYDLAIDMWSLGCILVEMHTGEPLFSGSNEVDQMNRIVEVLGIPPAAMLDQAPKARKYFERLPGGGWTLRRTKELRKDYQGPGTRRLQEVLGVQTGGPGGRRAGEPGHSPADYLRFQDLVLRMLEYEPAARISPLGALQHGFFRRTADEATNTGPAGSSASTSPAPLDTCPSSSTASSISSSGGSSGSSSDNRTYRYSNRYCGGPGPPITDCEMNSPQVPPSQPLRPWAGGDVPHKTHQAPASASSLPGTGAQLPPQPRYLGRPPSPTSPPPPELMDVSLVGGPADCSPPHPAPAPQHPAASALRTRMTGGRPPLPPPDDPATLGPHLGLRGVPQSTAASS

What was measured:
Conditions in all cases: 10 μM; cited from earlier work
[1] = molecular target: T1, CLK2 (Homo sapiens, UniProt P49760)
T1 construct: purchased ProQinase (Freiburg, Germany)

[2] = molecular target: T2, CLK3 (Homo sapiens, UniProt P49761)
T2 construct: purchased ProQinase (Freiburg, Germany)

[3] = molecular target: T3, DYRK2 (Homo sapiens, UniProt Q92630)
T3 construct: purchased ProQinase (Freiburg, Germany)
T3 sequence (Q92630 1-601): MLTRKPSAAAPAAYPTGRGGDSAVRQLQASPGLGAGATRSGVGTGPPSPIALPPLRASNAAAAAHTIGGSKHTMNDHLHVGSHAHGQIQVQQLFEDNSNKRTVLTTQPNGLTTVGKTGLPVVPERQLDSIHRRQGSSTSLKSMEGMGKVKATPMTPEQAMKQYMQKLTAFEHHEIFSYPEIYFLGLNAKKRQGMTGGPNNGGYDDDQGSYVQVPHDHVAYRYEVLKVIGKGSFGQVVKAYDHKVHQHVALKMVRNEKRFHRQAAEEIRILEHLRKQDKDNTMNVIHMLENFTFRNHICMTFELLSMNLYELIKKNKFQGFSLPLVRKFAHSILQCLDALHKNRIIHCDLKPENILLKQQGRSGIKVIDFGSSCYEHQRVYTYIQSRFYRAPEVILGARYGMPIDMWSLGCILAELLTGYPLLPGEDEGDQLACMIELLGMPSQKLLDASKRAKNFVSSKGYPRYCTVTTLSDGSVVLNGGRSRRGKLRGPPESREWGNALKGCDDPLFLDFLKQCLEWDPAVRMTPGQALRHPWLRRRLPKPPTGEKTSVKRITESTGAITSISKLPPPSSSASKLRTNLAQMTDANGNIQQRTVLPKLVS

[4] = molecular target: DYRK1B (Homo sapiens, UniProt Q9Y463); design: purchased ProQinase (Freiburg, Germany)

In the case of `CN1C(=O)/C(=C/c2ccc3c(c2)OCO3)N=C1N` [Leucett-amine B, Leucettamine B], the “Residual activity (% of control)” value [1] is listed as 10 % of control, the “Residual activity (% of control)” value [2] is listed as 73 % of control and the “Residual activity (% of control)” value [3] is listed as 57 % of control. The “Residual activity (% of control)” value [4] was 11 % of control.
